Earlier results in publication PMC9285603, “Flavan‐3‐ol Microbial Metabolites Modulate Proteolysis in Neuronal Cells Reducing Amyloid‐beta (1‐42) Levels” (Molecular Nutrition & Food Research, 2021).

Conditions: cited from earlier work

5‐(hydroxyphenyl)‐γ‐valerolactone‐sulfate (3ʹ,4ʹ isomer)
ability to reach the brain: able to reach the brain
